# Reference: patent publication US9474759B2 (priority 2011, dated 2016)
# Experiment: Cardiac toxicity (in vitro ADMET profile)
row,Structure (SMILES),cardiac toxicity: none observed up to [µM]
1,CC(C)C[C@H](NC(=O)OCc1ccccc1)C(=O)N[C@H](C=O)C[C@@H]1CCNC1=O [GC373],> 100
2,CC(C)C[C@H](NC(=O)OCc1ccccc1)C(=O)N[C@@H](CC1CCNC1=O)C(=O)C(=O)NC(C)C (some centres unmarked) [GC375],> 100
